According to patent US8470855B2, “Dual-use peptidase inhibitors as prodrugs for a therapy of inflammatory and other diseases” (IMTM GmbH, priority 2005, dated 2013):
Read-outs that look alike come from different tables or passages of the source.

Sequences of proteins named here, by UniProt entry; tags and fusion partners are left off.
UniProt P15145, whole entry: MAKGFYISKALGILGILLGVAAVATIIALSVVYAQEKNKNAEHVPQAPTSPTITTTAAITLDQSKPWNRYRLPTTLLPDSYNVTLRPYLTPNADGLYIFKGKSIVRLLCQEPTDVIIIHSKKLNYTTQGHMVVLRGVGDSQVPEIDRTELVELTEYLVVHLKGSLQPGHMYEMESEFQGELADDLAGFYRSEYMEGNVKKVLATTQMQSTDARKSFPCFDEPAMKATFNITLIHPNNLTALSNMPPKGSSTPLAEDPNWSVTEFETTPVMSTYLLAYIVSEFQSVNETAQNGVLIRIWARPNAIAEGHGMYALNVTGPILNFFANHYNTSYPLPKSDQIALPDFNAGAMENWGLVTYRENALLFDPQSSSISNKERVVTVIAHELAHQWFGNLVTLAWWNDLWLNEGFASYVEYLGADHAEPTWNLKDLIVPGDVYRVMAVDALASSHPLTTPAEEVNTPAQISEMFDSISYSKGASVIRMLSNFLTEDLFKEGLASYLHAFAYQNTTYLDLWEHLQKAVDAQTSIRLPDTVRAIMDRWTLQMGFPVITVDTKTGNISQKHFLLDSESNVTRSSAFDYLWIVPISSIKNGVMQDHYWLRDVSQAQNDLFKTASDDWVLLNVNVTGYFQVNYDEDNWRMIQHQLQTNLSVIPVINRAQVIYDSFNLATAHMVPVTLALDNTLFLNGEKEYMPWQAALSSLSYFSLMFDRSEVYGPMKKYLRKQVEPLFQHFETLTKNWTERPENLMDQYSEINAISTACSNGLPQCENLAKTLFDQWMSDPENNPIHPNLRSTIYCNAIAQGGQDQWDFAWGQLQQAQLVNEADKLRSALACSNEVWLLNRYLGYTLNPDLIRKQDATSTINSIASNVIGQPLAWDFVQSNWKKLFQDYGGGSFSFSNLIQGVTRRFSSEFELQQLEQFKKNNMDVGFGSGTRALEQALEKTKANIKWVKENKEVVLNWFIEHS
UniProt P22411, whole entry: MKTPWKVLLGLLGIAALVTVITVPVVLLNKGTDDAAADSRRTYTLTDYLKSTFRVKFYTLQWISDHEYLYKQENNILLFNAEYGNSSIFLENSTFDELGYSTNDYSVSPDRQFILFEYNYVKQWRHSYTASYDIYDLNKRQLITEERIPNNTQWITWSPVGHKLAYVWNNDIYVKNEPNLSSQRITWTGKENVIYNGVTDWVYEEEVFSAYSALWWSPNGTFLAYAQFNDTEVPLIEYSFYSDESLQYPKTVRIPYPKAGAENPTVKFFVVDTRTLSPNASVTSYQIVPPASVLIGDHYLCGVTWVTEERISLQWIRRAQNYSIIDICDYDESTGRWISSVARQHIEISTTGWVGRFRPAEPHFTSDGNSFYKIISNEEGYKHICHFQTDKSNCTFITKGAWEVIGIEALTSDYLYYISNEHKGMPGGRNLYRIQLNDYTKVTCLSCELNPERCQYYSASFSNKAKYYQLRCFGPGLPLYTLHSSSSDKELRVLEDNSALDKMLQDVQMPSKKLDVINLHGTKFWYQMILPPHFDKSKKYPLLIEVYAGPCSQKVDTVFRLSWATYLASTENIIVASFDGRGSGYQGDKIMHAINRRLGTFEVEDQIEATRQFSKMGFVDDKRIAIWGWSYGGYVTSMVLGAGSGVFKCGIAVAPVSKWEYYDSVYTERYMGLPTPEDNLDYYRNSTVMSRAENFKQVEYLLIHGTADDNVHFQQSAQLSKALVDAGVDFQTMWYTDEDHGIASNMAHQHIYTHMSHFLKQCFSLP

Assays:
[1] = molecular target: APN (Leucin aminopeptidase, microsomal, EC 3.4.11.2) (Sus scrofa, UniProt P15145); assay: IC50 determination against APN after reduction of the prodrugs with DTT; settings: read-out: APN (IC 50 [M]), after release (reduction with DTT) of the inhibitors from the prodrugs, pig kidney enzyme, substrate Leu-AMC, pH 7.2, 30° C.
Procedure: (§1) Process of the Reduction with DTT:
(§2) Same volumes of the 7·10^−2 M solution of the inhibitor in water or DMF and a 0.35 M aqueous DTT-solution (5 equivalents) were agitated 4 hours at RT.
(§3) Subsequently to the reductive treatment of the prodrugs the IC50-values were estimated using the following process:
(§4) Determination of the IC50-Values after Reduction:
Leucin aminopeptidase, microsomal, from pig kidney (EC 3.4.11.2).
Suspension in 3.5 M (NH4)2SO4-solution (Sigma).
Substrate: Leu-AMC, [S]=1.5·10^−4 M (2 Km) in the reaction batch.
Buffer: 40 mM Tris/HCl-buffer, pH 7.2 in the reaction batch.
(§5) By dilution with water 10 to 12 solutions with defined inhibitor concentration were prepared from the reduction batch. These were selected from a relevant concentration range, i.e. between complete inhibition and non-influenced enzyme activity.
(§6) 60 μl of these inhibitor solutions each or water (standard), were incubated with 80 μl of the according diluted enzymes in buffer for 15 minutes at 30° C. and subsequently 60 μl of the according AMC-substrate in water (total volume 200 μl) were added. The release of the 7-Amino-4-methyl-cumarin was traced continuously over a period of 20 minutes at 30° C. using a fluorence-pladt-reader NOVOstar (BMG Labtechnologies). The enzyme concentration was chosen to give a linear increase of the fluorescence during the measuring period.
(§7) The excitation- and emission-wavelengths, respectively, were 390 and 460 nm. The measurements were performed in duplicates. The turn-over rates (increase of fluorescence/minutes) were plotted against the concentration of the inhibitor and the IC50-values were calculated using the computer program GraFit.
(§8) For comparison the IC50-values of established inhibitor against DPIV (H-Lys[Z(NO2)]-thiazolidide) and APN (actinonine) were estimated.

[2] = molecular target: Dipeptidyl peptidase IV (EC 3.4.14.5.) (Sus scrofa, UniProt P22411); assay: IC50 determination against DP IV after reduction of the prodrugs with DTT; settings: read-out: DP IV (IC 50 [M]), after release (reduction with DTT) of the inhibitors from the prodrugs, pig kidney enzyme, substrate Ala-Pro-AMC, pH 7.6, 30° C.
Procedure: as §1, §2, §3, §4
Dipeptidyl peptidase IV from pig kidney (EC 3.4.14.5.), lyophilisated powder (Sigma).
Substrate: Ala-Pro-AMC, [S]=3·10^−5 M (2 Km) in the reaction batch.
Buffer: 40 mM Tris/HCl-buffer, pH 7.6, I=0.125 in the reaction batch.
as §5, §6, §7, §8

[3] = tested form: bis(trifluoroacetate)

SMILES	IC50 [1] [M]	IC50 [2] [M]	IC50 [1, 3] [M]	IC50 [2, 3] [M]
N[C@@H](CSSC[C@H](N)C(=O)N1CCCC1)C(=O)N1CCCC1	0.000184	2.25e-05		
N[C@@H](CSSC[C@H](N)C(=O)N1CCSC1)C(=O)N1CCSC1			0.000108	8.07e-06
CC(C)(SSCC(N)Cc1ccccc1)C(N)C(=O)N1CCSC1 (stereo not drawn)	1.08e-07	4.51e-06		
